Results: patent publication US4207343A, “1-Phenyl-3-(substituted phenoxy)propylamines” (priority 1978, dated 1980)

Tested on: uptake of serotonin by platelets
Conditions: human platelet-rich plasma; estimated value

CNCCC(Oc1ccc(C(F)(F)F)cc1)c1ccccc1 (stereo not shown) [fluoxetine, N-methyl 3-(p-trifluoromethylphenoxy)-3-phenylpropylamine, reference compound]
estimated IC50, serotonin uptake by platelets: 22 nmol
